Yeast mating assay 2: variants of the scFv Ab-91

Reference: Engelhart et al. 2022, doi:10.1038/s41597-022-01779-4. File: FLAb, binding data.

Binding partner: SARS-CoV-2 spike HR2 peptide, sequence PDVDLGDISGINAS.

The variants keep the light chain, the linker and the frameworks of Ab-91 (scFv order VL, the linker GGGGSGGGGSGGGGS, VH).
VL: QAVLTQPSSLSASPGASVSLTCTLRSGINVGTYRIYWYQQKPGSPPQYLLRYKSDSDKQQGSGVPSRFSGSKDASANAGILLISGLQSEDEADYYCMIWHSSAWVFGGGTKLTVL
VH: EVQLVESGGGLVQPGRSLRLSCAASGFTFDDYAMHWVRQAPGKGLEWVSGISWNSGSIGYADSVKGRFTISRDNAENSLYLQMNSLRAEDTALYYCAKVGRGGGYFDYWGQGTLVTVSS

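Phage display of a naive human antibody library on the peptide gave the parent. Variants in AAYL51 differ from the parent at up to three CDR positions; double and triple changes were sampled at random. Affinity was read by AlphaSeq, a pooled yeast mating assay with surface-displayed partners. Pairs that bind mate more often; barcode pairs of the diploids are counted by sequencing. The ratio of observed to expected reads was calibrated, replicate by replicate, on BCL2-family standards whose Kd was known from biolayer interferometry. Mating was done three times.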

The parent's heavy chain CDRs are GFTFDDYAMH, GISWNSGSIGYADSVK, VGRGGGYFDY; each variant's own CDRs replace them letter for letter. Values are log10 of the apparent Kd in nM; lower means stronger binding. Averages over replicates are reported, and they cover detected replicates only. An entry "no signal" has no value in the source: the pair was not observed among the diploids in any replicate. This suggests poor binding but is not conclusive. For reference, the parent read 1.86 as the reference entry and 0.88 as a member of this library. Three control strains display no target. For library AAYL51, 21% of the pairings with them gave a signal, with a median of 4.54 and one signal in twenty below 3.26, so weak values seen in few replicates may be background.

| CDR-H1 | CDR-H2 | CDR-H3 | mean log10 Kd (nM) | replicates with signal |
|---|---|---|---|---|
| VFTFDDYLMH | GISWNSGSCGYADSVK | VGRGGGYFDY | 5.22 | 1/3 |
| GFTFDDRAMH | GISWNSGSIGYADSVK | VGWGFGYFDY | 3.39 | 1/3 |
| GFTFCDYAMH | GISWNSGSIGYADSVK | VTRPGGYFDY | 4.81 | 2/3 |
| GFEFDDYAMH | GISWNSGSAGYADSVK | CGRGGGYFDY | no signal | 0/3 |
| GFHFDDYAMH | GISWNSGSIGYADSVK | VIRGGGTFDY | 3.37 | 1/3 |
| GFTFWIYAMH | GISWNSGSIGYADSLK | VGRGGGYFDY | 2.50 | 1/3 |
| GFTFDDYAMH | GYSWNSGSIGYWDSVK | VGRGEGYFDY | 4.75 | 2/3 |
| GFTFADYAMH | GISWNSGSISYADSLK | VGRGGGYFDY | no signal | 0/3 |
| GFTFDDYAMH | GIAWNSGSFGYADSVK | VGRGDGYFDY | 5.79 | 2/3 |
| GFTFDDYANH | GKRWNSGSIGYADSVK | VGRGGGYFDY | no signal | 0/3 |
| GTTFDDYAMH | GISWNSGSIGYADSVK | VGRGGGVFIY | 4.95 | 2/3 |
| GFTFDDYAQH | GISWQSGSIGYADSVK | VGRGGGVFDY | no signal | 0/3 |
| GFTFDDYAMH | NISWNSGSIGYADSVK | VRRGGIYFDY | 5.66 | 3/3 |
| GFTFDDYAMH | GIEWNSGSIGYADSVV | VVRGGGYFDY | no signal | 0/3 |
| QFTFDDYAMH | GISWNGGSIGYADSVK | VGRGGGYFDH | 3.05 | 3/3 |
| GFTLDDYAMH | GIRWNSGSIGYADSVK | VWRGGGYFDY | 5.16 | 1/3 |
| GFTFDDYAMH | GISWNSGSIGYADSVK | VGRGMGNTDY | 4.54 | 2/3 |
| GFTFDDYAMC | GEAWNSGSIGYADSVK | VGRGGGYFDY | no signal | 0/3 |
| GFTFDDYAMH | GISWNSVSWGAADSVK | VGRGGGYFDY | no signal | 0/3 |
| GFTCDDYAMH | GISWSSGSIGYADSVK | VGRGGEYFDY | no signal | 0/3 |
| GFTFDDYAMH | GISWNSGSIYYADSLK | VGRGGGYVDY | no signal | 0/3 |
| GFTFDDYAMH | GISWKSGSIGAAESVK | VGRGGGYFDY | 4.29 | 1/3 |
| GFTFDDYACH | GKSWNSGSIGYADSVK | VGRGGGYFDY | 4.73 | 2/3 |
| KFTFDDYAYH | GISWNSGFIGYADSVK | VGRGGGYFDY | no signal | 0/3 |
| GFTFDKYAMH | GISWNSGSIGYADIVK | VGRGGYYFDY | no signal | 0/3 |
| GFTFDDYAMK | GISWNSGSIGYADKVK | VGRGCGYFDY | no signal | 0/3 |
| GFDNDDYAMH | GISWNSGSIGYANSVK | VGRGGGYFDY | 5.19 | 2/3 |
| GFTFDVYAMH | GISWNSGSIGYAESVK | VGRGGGYFQY | no signal | 0/3 |
| GFTHDDYAMF | GYSWNSGSIGYADSVK | VGRGGGYFDY | 5.44 | 1/3 |
| GFTFDDQAEH | GISWNSGSIGYADSLK | VGRGGGYFDY | no signal | 0/3 |
| GFTFDDYAMH | GISRNSFSIYYADSVK | VGRGGGYFDY | 4.33 | 1/3 |
| GFTFDDYAMH | LISWNSGSIGYADSDG | VGRGGGYFDY | no signal | 0/3 |
| GFTFDDYAMH | GISSFSGSIGYADSVK | VGRGGGYVDY | 5.84 | 2/3 |
| GFTFDDYAMH | VISWNSGSIGYADSVK | VQRGHGYFDY | no signal | 0/3 |
| GFTFDDYAMH | GISWNSGSIGKADSVK | VGQGWGYFDY | no signal | 0/3 |
| GFTFDDYAMH | GISWNRGSIGYGSSVK | VGRGGGYFDY | 3.82 | 1/3 |
| GATFNDYAMH | GISWNSGSIGYWDSVK | VGRGGGYFDY | no signal | 0/3 |
| KFTFDDYAMH | GISWNSGSIGYHPSVK | VGRGGGYFDY | no signal | 0/3 |
| GFTFLDYAMH | GISWRSGSIGYAFSVK | VGRGGGYFDY | no signal | 0/3 |
| GFTFDDYARH | GIFWNSGSIGYADSVK | VGRGGGYFDY | no signal | 0/3 |
| GFTFDDFAMH | GISWNSGWIQYADSVK | VGRGGGYFDY | 4.38 | 2/3 |
| GFQFDDYAMH | RISWNSGSIGYALSVK | VGRGGGYFDY | no signal | 0/3 |
| GFNFDDYAMH | GISWNSGSIQYADSVY | VGRGGGYFDY | no signal | 0/3 |
| GFHFDDYAMH | QISWNSGSIGYADSVK | VGRGGDYFDY | no signal | 0/3 |
| SFTFCDYAMH | GISWNSGSIGYADSVK | VGRGGGYSDY | 3.46 | 1/3 |
| GFTFDDMAMH | GRRWNSGSIGYADSVK | VGRGGGYFDY | 3.71 | 1/3 |
| GFTFDDWAMN | GISWNSGSIGYADSVK | VGRCGGYFDY | 4.14 | 1/3 |

The first 2 variants above that were never detected:

| CDR-H1 | CDR-H2 | CDR-H3 | mean log10 Kd (nM) | replicates with signal |
|---|---|---|---|---|
| GFEFDDYAMH | GISWNSGSAGYADSVK | CGRGGGYFDY | no signal | 0/3 |
| GFTFADYAMH | GISWNSGSISYADSLK | VGRGGGYFDY | no signal | 0/3 |